# Columns and labels:
# [1] = target: OTULINcat E85R (human) (UniProt Q96BN8); assay: ITC; PDZ variant (150-450 µM) in the syringe, OTULINcat variant (20-30 µM) in the cell; 25 °C; 20 mM HEPES pH 7.4, 200 mM NaCl, 2 mM TCEP; single-site binding model
# [2] = target: OTULINcat (aa 80-352) (human) (UniProt Q96BN8); assay: as above
# [3] = target: OTULINcat D90R (human) (UniProt Q96BN8); assay: as above
# [4] = target: OTULINcat E209R (human) (UniProt Q96BN8); assay: as above
# [5] = target: OTULINcat E85R, D87R (human) (UniProt Q96BN8); assay: as above
# [6] = target: OTULINcat D87R (human) (UniProt Q96BN8); assay: as above
# [7] = target: OTULINcat (aa 80-352) (human) (UniProt Q96BN8); assay: SEC; purified recombinant proteins, Superdex 75 10/300, 20 mM Tris pH 7.5, 150 mM NaCl, 2 mM DTT; 500 µl of 65 µM complexes at equimolar ratio or in isolation
substance,measurement,setting,value
SNX27 PDZ domain (aa 40-135) (from UniProt Q96L92 40-135) (domain or fragment),stoichiometry N,[1],1.02
same,stoichiometry N,[2],0.91
same,stoichiometry N,[3],0.75
same,stoichiometry N,[4],0.74
same,stoichiometry N,[5],1.53
same,stoichiometry N,[6],0.99
SNX27PDZ (aa 40–135) (from UniProt Q96L92 40-135) (domain or fragment),stoichiometry N,[7],1
SNX27PDZ G64E (from UniProt Q96L92 40-135) (domain or fragment),stoichiometry N,[2],0.75
"SNX27PDZ G64E, R100E (from UniProt Q96L92 40-135) (domain or fragment)",stoichiometry N,[2],0.84
SNX27PDZ G65A (from UniProt Q96L92 40-135) (domain or fragment),stoichiometry N,[2],0.76
SNX27PDZ R100E (from UniProt Q96L92 40-135) (domain or fragment),stoichiometry N,[2],0.89
